Consider 27 compounds from patent US20250195530A1, “POLQ INHIBITORS” (ASTRAZENECA AB, priority 2022, published 2025).

Chains of the proteins cited; added tags and fusions are not shown. Residues count along the entry.
UniProt O75417, 1780-2590: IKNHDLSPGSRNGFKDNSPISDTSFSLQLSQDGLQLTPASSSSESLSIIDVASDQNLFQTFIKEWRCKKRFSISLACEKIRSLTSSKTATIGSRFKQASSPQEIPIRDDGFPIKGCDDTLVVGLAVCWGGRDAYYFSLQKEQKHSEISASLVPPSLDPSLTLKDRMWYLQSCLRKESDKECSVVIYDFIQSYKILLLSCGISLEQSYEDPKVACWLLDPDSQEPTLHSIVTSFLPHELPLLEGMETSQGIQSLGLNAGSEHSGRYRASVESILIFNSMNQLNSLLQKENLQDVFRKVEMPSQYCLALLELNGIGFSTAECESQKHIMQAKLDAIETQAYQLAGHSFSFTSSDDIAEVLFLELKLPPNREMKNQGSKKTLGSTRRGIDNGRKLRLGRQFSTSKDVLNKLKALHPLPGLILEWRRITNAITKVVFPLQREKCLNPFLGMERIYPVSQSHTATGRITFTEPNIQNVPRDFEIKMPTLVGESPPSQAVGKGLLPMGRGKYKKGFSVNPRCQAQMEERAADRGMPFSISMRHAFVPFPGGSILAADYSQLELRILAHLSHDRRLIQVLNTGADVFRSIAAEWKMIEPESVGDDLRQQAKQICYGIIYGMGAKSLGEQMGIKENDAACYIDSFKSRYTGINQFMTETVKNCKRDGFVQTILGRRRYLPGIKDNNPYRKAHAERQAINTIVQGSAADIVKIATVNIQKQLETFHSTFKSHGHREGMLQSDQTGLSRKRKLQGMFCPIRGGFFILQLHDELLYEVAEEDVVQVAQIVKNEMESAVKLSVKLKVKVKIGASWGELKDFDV

For this assay, the target named is isolated polymerase domain (I1780-V2590) of DNA polymerase theta (Polθ) (Homo sapiens (Human), UniProt O75417). Description: biochemical.

A word on the IC50: it is the concentration that gives 50% inhibition. Take `CC(CCOc1ccc(-c2nc3c(OC4(C)CC4)ncnc3n2Cc2cccc(Cl)c2F)c(Cl)c1)C(=O)O` (single isomer, unassigned) [Example T270, 4-(3-chloro-4-(9-(3-chloro-2-fluorobenzyl)-6-(1-methylcyclopropoxy)-9H-purin-8-yl)phenoxy)-2-methylbutanoic acid]: inhibition was half-maximal at 6.31 nM (IC50).

As for `CC(CCOc1ccc(-c2nc3c(OC4(C)CC4)ncnc3n2Cc2cc(F)cc(Cl)c2)c(Cl)c1)C(=O)O` (single isomer, unassigned) [Example T272, 4-(3-chloro-4-(9-(3-chloro-5-fluorobenzyl)-6-(1-methylcyclopropoxy)-9H-purin-8-yl)phenoxy)-2-methylbutanoic acid], the IC50 was 3.98 nM.

As to `CC(CCOc1ccc(-c2nc3c(OC4(C)CC4)ncnc3n2Cc2cc(F)cc(Cl)c2)c(Cl)c1)C(=O)O` (single isomer, unassigned) [Example T273, 4-(3-chloro-4-(9-(3-chloro-5-fluorobenzyl)-6-(1-methylcyclopropoxy)-9H-purin-8-yl)phenoxy)-2-methylbutanoic acid], 3.16 nM corresponded to half-maximal inhibition (IC50).

Consider `CC(COc1ccc(-c2nc3c(OC4(C)CC4)ncnc3n2Cc2cccc(Cl)c2)c(Cl)c1)CC(=O)O` (single isomer, unassigned) [Example T294, 4-(3-chloro-4-(9-(3-chlorobenzyl)-6-(1-methylcyclopropoxy)-9H-purin-8-yl)phenoxy)-3-methylbutanoic acid], for which half-maximal inhibition (IC50) required 6.31 nM.

The compound `CC(COc1ccc(-c2nc3c(OC4(C)CC4)ncnc3n2Cc2cccc(Cl)c2)c(Cl)c1)CC(=O)O` (single isomer, unassigned) [Example T295, 4-(3-chloro-4-(9-(3-chlorobenzyl)-6-(1-methylcyclopropoxy)-9H-purin-8-yl)phenoxy)-3-methylbutanoic acid] showed an IC50 of 5.01 nM.

The compound `CC(COc1cccc(-c2nc3c(OC4(C)CC4)ncnc3n2Cc2cccc(Cl)c2)c1Cl)CC(=O)O` (single isomer, unassigned) [Example T299, 4-(2-chloro-3-(9-(3-chlorobenzyl)-6-(1-methylcyclopropoxy)-9H-purin-8-yl)phenoxy)-3-methylbutanoic acid] gave a concentration for half-maximal inhibition (IC50) of 7.94 nM.

`CC(COc1cccc(-c2nc3c(OC4(C)CC4)ncnc3n2Cc2cccc(Cl)c2)c1Cl)CC(=O)O` (single isomer, unassigned) [Example T300, 4-(2-chloro-3-(9-(3-chlorobenzyl)-6-(1-methylcyclopropoxy)-9H-purin-8-yl)phenoxy)-3-methylbutanoic acid] showed a concentration for half-maximal inhibition (IC50) of 3.98 nM.

The compound `Cc1cnc(Cn2c(-c3ccc(OC4CCCN(C)CC4)cc3Cl)nc3c(OC4(C)CC4)ncnc32)s1` (single isomer, unassigned) [Example T389, 2-((8-(2-chloro-4-((1-methylazepan-4-yl)oxy)phenyl)-6-(1-methylcyclopropoxy)-9H-purin-9-yl)methyl)-5-methylthiazole] gave a half-inhibitory concentration (IC50) of 5.01 nM.

`Cc1cnc(Cn2c(-c3ccc(OC4CCCN(C)CC4)cc3Cl)nc3c(OC4(C)CC4)ncnc32)s1` (single isomer, unassigned) [Example T390, 2-((8-(2-chloro-4-((1-methylazepan-4-yl)oxy)phenyl)-6-(1-methylcyclopropoxy)-9H-purin-9-yl)methyl)-5-methylthiazole] showed an IC50 of 3.98 nM.

`CC(CCOc1ccc(-c2nc3c(OC4(C)CC4)ncnc3n2Cc2cccc(C(F)(F)F)c2)c(Cl)c1)C(=O)O` (single isomer, unassigned) [Example T396, 4-(3-chloro-4-(6-(1-methylcyclopropoxy)-9-(3-(trifluoromethyl)benzyl)-9H-purin-8-yl)phenoxy)-2-methylbutanoic acid]: the IC50 was 7.94 nM.

Take `CC(CCOc1ccc(-c2nc3c(OC4(C)CC4)ncnc3n2Cc2cccc(C(F)(F)F)c2)c(Cl)c1)C(=O)O` (single isomer, unassigned) [Example T397, 4-(3-chloro-4-(6-(1-methylcyclopropoxy)-9-(3-(trifluoromethyl)benzyl)-9H-purin-8-yl)phenoxy)-2-methylbutanoic acid]: the IC50 is 6.31 nM.

For the compound `CC(CCOc1ccc(-c2nc3c(OC4(C)CC4)ncnc3n2Cc2cccc(C(F)F)c2)c(Cl)c1)C(=O)O` (single isomer, unassigned) [Example T412, 4-(3-chloro-4-(9-(3-(difluoromethyl)benzyl)-6-(1-methylcyclopropoxy)-9H-purin-8-yl)phenoxy)-2-methylbutanoic acid], the IC50 is 5.01 nM.

`CC(CCOc1ccc(-c2nc3c(OC4(C)CC4)ncnc3n2Cc2cccc(C(F)F)c2)c(Cl)c1)C(=O)O` (single isomer, unassigned) [Example T413, 4-(3-chloro-4-(9-(3-(difluoromethyl)benzyl)-6-(1-methylcyclopropoxy)-9H-purin-8-yl)phenoxy)-2-methylbutanoic acid] showed a half-maximal inhibitory concentration (IC50) of 7.94 nM.

In turn, `CC(CCOc1ccc(-c2nc3c(OC4(C)CC4)ncnc3n2Cc2ccccc2C(F)F)c(Cl)c1)C(=O)O` (single isomer, unassigned) [Example T414, 4-(3-chloro-4-(9-(2-(difluoromethyl)benzyl)-6-(1-methylcyclopropoxy)-9H-purin-8-yl)phenoxy)-2-methylbutanoic acid] gave an IC50 of 7.94 nM.

The compound `CC(CCCOc1ccc(-c2nc3c(OC4(C)CC4)ncnc3n2Cc2cccc(Cl)c2)c(Cl)c1)C(=O)O` (single isomer, unassigned) [Example T438, 5-(3-chloro-4-(9-(3-chlorobenzyl)-6-(1-methylcyclopropoxy)-9H-purin-8-yl)phenoxy)-2-methylpentanoic acid] showed an IC50 of 3.16 nM.

`CC(CCCOc1cccc(-c2nc3c(OC4(C)CC4)ncnc3n2Cc2cccc(Cl)c2)c1Cl)C(=O)O` (single isomer, unassigned) [Example T443, 5-(2-chloro-3-(9-(3-chlorobenzyl)-6-(1-methylcyclopropoxy)-9H-purin-8-yl)phenoxy)-2-methylpentanoic acid] showed an IC50 of 6.31 nM.

`CC(CCCOc1cccc(-c2nc3c(OC4(C)CC4)ncnc3n2Cc2cccc(Cl)c2)c1Cl)C(=O)O` (single isomer, unassigned) [Example T444, 5-(2-chloro-3-(9-(3-chlorobenzyl)-6-(1-methylcyclopropoxy)-9H-purin-8-yl)phenoxy)-2-methylpentanoic acid]: 5.01 nM corresponded to half-maximal inhibition (IC50).

Take `COc1cc(Cl)cc(Cn2c(-c3ccc(OCCC(C)C(=O)O)cc3Cl)nc3c(OC4(C)CC4)ncnc32)c1` (single isomer, unassigned) [Example T446, 4-(3-chloro-4-(9-(3-chloro-5-methoxybenzyl)-6-(1-methylcyclopropoxy)-9H-purin-8-yl)phenoxy)-2-methylbutanoic acid]: the IC50 was 6.31 nM.

`COc1cc(Cl)cc(Cn2c(-c3ccc(OCCC(C)C(=O)O)cc3Cl)nc3c(OC4(C)CC4)ncnc32)c1` (single isomer, unassigned) [Example T447, 4-(3-chloro-4-(9-(3-chloro-5-methoxybenzyl)-6-(1-methylcyclopropoxy)-9H-purin-8-yl)phenoxy)-2-methylbutanoic acid]: the IC50 was 3.16 nM.

On to `COc1cccc(Cn2c(-c3ccc(OCCC(C)C(=O)O)cc3Cl)nc3c(OC4(C)CC4)ncnc32)c1` (single isomer, unassigned) [Example T455, 4-(3-chloro-4-(9-(3-methoxybenzyl)-6-(1-methylcyclopropoxy)-9H-purin-8-yl)phenoxy)-2-methylbutanoic acid], for which the IC50 was 6.31 nM.

As for `Cc1ccnc(Cn2c(-c3ccc(OC4CCCNCC4)cc3Cl)nc3c(OC4(C)CC4)ncnc32)c1` (single isomer, unassigned) [Example T509, 8-(4-(azepan-4-yloxy)-2-chlorophenyl)-6-(1-methylcyclopropoxy)-9-((4-methylpyridin-2-yl)methyl)-9H-purine], the IC50 is 3.98 nM.

`Cc1ccnc(Cn2c(-c3ccc(OC4CCCNCC4)cc3Cl)nc3c(OC4(C)CC4)ncnc32)c1` (single isomer, unassigned) [Example T510, 8-(4-(azepan-4-yloxy)-2-chlorophenyl)-6-(1-methylcyclopropoxy)-9-((4-methylpyridin-2-yl)methyl)-9H-purine] gave a concentration for half-maximal inhibition (IC50) of 5.01 nM.

The compound `Cc1c(Cn2c(-c3ccc(OCCC(C)C(=O)O)cc3Cl)nc3c(OC4(C)CC4)ncnc32)cccc1C(F)(F)F` (single isomer, unassigned) [Example T534, 4-(3-chloro-4-(9-(2-methyl-3-(trifluoromethyl)benzyl)-6-(1-methylcyclopropoxy)-9H-purin-8-yl)phenoxy)-2-methylbutanoic acid] gave an IC50 of 10 nM.

Take `Cc1ccnc(Cn2c(-c3ccc(OC4CCc5nccn5C4)cc3Cl)nc3c(OC4(C)CC4)ncnc32)c1` (single isomer, unassigned) [Example T536, 8-(2-chloro-4-((5,6,7,8-tetrahydroimidazo[1,2-a]pyridin-6-yl)oxy)phenyl)-6-(1-methylcyclopropoxy)-9-((4-methylpyridin-2-yl)methyl)-9H-purine]: the IC50 is 5.01 nM.

Consider `CC(CCOc1ccc(-c2nc3c(OC4(C)CC4)ncnc3n2Cc2cccc(C(C)(F)F)c2)c(Cl)c1)C(=O)O` (single isomer, unassigned) [Example T545, 4-(3-chloro-4-(9-(3-(1,1-difluoroethyl)benzyl)-6-(1-methylcyclopropoxy)-9H-purin-8-yl)phenoxy)-2-methylbutanoic acid], for which the IC50 is 6.31 nM.

Consider `CC(CCOc1ccc(-c2nc3c(OC4(C)CC4)ncnc3n2Cc2cccc(C(C)(F)F)c2)c(Cl)c1)C(=O)O` (single isomer, unassigned) [Example T546, 4-(3-chloro-4-(9-(3-(1,1-difluoroethyl)benzyl)-6-(1-methylcyclopropoxy)-9H-purin-8-yl)phenoxy)-2-methylbutanoic acid], for which the IC50 is 5.01 nM.

As for `Cc1ccc(C)c(Cn2c(-c3ccc(OCCC(C)C(=O)O)cc3Cl)nc3c(OC4(C)CC4)ncnc32)c1` (single isomer, unassigned) [Example T572, 4-(3-chloro-4-(9-(2,5-dimethylbenzyl)-6-(1-methylcyclopropoxy)-9H-purin-8-yl)phenoxy)-2-methylbutanoic acid], the IC50 was 5.01 nM.
